Test [1] concerns the target T1, Cannabinoid receptor 1 (Homo sapiens, UniProt P21554). In words: Displacement of [3H]-SR141716A from human CB1 receptor expressed in CHO-K1 cells after 1 hr by liquid scintillation counting. In kind it is cell-based. The essentials: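 Radioligand displacement with [3H]SR141716 used to determine equilibrium dissociation constant Ki.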
Test [2] has as its target T1, Cannabinoid receptor 1. In words: Displacement of [3H]-CP55940 from human CB1 receptor expressed in CHO-K1 cells after 1 hr by liquid scintillation spectrometry. In kind it is cell-based. The essentials:
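Membranes from CHO-K1 cells over-expressing CB1 or CB2 used for [3H]CP55940 displacement, giving Ki at each receptor. Selectivity taken as the comparison of the CB2 and CB1 Ki values.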

Protein sequences, listed by entry. Tags and fused reporters are not part of them.
UniProt P21554, whole entry: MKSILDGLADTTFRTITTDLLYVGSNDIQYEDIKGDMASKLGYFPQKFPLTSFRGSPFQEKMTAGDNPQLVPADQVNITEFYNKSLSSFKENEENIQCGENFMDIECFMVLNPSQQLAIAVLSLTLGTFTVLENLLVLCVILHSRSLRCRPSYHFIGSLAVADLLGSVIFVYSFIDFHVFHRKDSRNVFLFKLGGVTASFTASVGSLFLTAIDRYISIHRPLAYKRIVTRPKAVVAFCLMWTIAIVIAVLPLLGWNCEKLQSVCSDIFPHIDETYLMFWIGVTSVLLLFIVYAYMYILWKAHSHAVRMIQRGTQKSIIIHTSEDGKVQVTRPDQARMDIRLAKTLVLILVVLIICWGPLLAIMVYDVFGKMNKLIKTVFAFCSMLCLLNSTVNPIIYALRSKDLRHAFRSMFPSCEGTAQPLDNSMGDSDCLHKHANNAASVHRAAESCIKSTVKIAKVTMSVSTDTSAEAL

Test [3] has as its target T1, Cannabinoid receptor 1. In words: Antagonist activity at human CB1 receptor transfected in CHO-K1 cells co-expressing G-alpha-q16 protein assessed as inhibition of G-alpha-q16 protein-mediated intracellular calcium mobilization. In kind it is functional, cell-based. The essentials: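 Fluorescent intracellular calcium read-out in CHO-K1 cells expressing CB1 coupled via Gαq16. Cells pre-incubated with test agent, then a CP55940 concentration-response was run. Antagonism seen as a rightward shift of the agonist curve. Apparent dissociation constant Ke was derived from agonist EC50 with versus without antagonist.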

As for `Cc1c(C(=O)NCC2CCC(CNS(N)(=O)=O)CC2)nn(-c2ccc(Cl)cc2Cl)c1-c1ccc(Cl)cc1` (mixture of isomers), the Ki stood at 21 nM in test [1] and 135 nM in test [2].
The like results for `Cc1c(C(=O)NC[C@H]2CC[C@@H](CNS(N)(=O)=O)CC2)nn(-c2ccc(Cl)cc2Cl)c1-c1ccc(Cl)cc1` were, in that order, 15 nM and 107 nM.
Regarding `Cc1c(C(=O)NCCCCCCCNS(C)(=O)=O)nn(-c2ccc(Cl)cc2Cl)c1-c1ccc(Cl)cc1`, the figures for the Ki in test [1] and in test [2] were 60 nM and 158 nM, respectively. For the same compound, the Ke in test [3] turned out to be 0.207 µM.

The record behind these values is ChEMBL document CHEMBL1833971, “Towards rational design of cannabinoid receptor 1 (CB1) antagonists for peripheral selectivity” (Bioorg Med Chem Lett, 2011).
